In the test the target is 5-hydroxytryptamine receptor 2C (Homo sapiens, UniProt P28335).

Amino acid sequences for entries named in this document (tags omitted). A change or cut given only in a name is not applied to a line headed by its entry.
UniProt P28335: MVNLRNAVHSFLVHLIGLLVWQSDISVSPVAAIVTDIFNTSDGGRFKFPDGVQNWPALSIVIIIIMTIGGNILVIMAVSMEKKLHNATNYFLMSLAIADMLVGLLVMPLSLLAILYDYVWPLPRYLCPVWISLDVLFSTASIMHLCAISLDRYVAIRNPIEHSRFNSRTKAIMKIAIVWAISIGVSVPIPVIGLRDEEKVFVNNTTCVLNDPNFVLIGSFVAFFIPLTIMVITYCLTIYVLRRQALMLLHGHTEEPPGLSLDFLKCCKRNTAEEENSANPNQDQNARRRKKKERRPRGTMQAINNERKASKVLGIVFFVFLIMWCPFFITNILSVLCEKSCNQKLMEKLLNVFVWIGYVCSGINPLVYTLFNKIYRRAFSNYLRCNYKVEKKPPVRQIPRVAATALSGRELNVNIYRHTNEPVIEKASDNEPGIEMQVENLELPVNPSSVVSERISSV

As for `Cn1ccc2cc3c(cc21)CCN3C(=O)Nc1cccnc1`, the Ki – broadly, the dissociation constant of the complex between target and ligand, obtained from inhibition or displacement – was 12 nM.

For the origin of these results see BindingDB's records for doi:10.1111/j.1476-5381.1996.tb15208.x (Smithkline Beecham Pharmaceuticals, 1996).
